# Data published in publication PMC10265101 (2023).
# Biological target: recombinant HLA-G (TP305216, OriGene) (human, UniProt P17693 25-308)
# Experiment: ELISA
row,IC50,Binder
1,~75.2 nM,HLA-G Nb#1 (VHH) VHH: EVQLVESGGGSVQAGGSLRLSCDASKYTYFRNCMGWFRQVPGAEREGVATIDSAGGTSYADFVKGRFTISRDNAKTALYLQMNSLKPEDTAMYYCFGGSWYKGSCIYEYNYWGQGTQVTVSS
2,~45.7 nM,HLA-G Nb#2 (VHH) VHH: HVQLVESGGGSVQAGGSLKLSCVTSAYTFSASGNCMGWLRQAPGKGREGIAATYTRSAKTYYADSVKGRFTISQDNAKNTVYLQMNGLKPEDTATYYCAVARCAGRPDRSTLTSFAWWGQGTQVTVSS
